Results published in US10662060B2, “Manufacture of lipid-based nanoparticles using a dual asymmetric centrifuge” (priority 2004, dated 2020).

Assay: Inclusion efficiency for albumin in liposomes (BCA test in supernatant after centrifugation)
Assay type: physicochemical
Conditions: EPC3/cholesterol 55/45, 3540 rpm 10 min
Experimental: Within the context of the present invention, the “enclosure efficiency” is the ratio (percentage) of the amount of the measured substance (e.g., of an active substance) which is included in the lipid-based nanoparticles, associated to the nanoparticles or incorporated into the nanoparticles, to the total amount of the respective substance used for the formulation.
Into six sterile glass vials (diameter 10 mm), 100 mg each of glass beads (diameter 1 mm) and 50 mg each of the mixture of hydrogenated egg phosphatidylcholine and cholesterol (55/45 mole %) existing as a solid solution was weighed. Into three of the vials, 75 μl each of an albumin solution was pipetted in concentrations of 1, 2 and 3 mg/ml. Into the fourth to sixth vials, 75 μl each of NaCl solution having a concentration of 0.9% was added. The closed vials were subjected to speed mixing at 3540 rpm for 10 minutes each. The three liposome gels loaded with albumin were redispersed with 250 μl each of NaCl solution. In contrast, the liposome gels prepared with saline only (vials 4-6) were redispersed with 175 μl of NaCl solution plus 75 μl of albumin solution (1, 2, 3 mg/ml). Subsequently, the thus formed liposomal dispersions were pipetted into suitable centrifuge tubes and centrifuged at 350,000 g, whereupon the liposomes sedimented. In the supernatant, the albumin concentration was subsequently determined by means of a BCA test (Interchim/Uptima, No. UP95424), and the inclusion efficiency was calculated. Result of inclusion efficiency for albumin in liposomes by speed mixing: […]

albumin
inclusion efficiency for albumin in liposomes by speed mixing (1 mg/ml albumin solution): 60.9%
inclusion efficiency for albumin in liposomes by speed mixing (2 mg/ml albumin solution): 70.9%
inclusion efficiency for albumin in liposomes by speed mixing (3 mg/ml albumin solution): 71.8%
